Yeast mating assay B: variants of the scFv Ab-14

Reference: Li et al. 2023, doi:10.1038/s41467-023-39022-2. File: FLAb, binding data.

All variants were tested on one target, the spike HR2 peptide PDVDLGDISGINAS (SARS-CoV-2).

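The parent was found by panning a naive human phage display library on the peptide. These sequences belong to a second round, designed from the earlier measurements on random variants of the parent. Their group label is 14H_GPLM_Gen (GPLM: also part of the Gaussian process libraries; Gen: genetic algorithm; a sequence that several methods proposed may carry one label only). AlphaSeq pools MATa yeast showing the antibodies with MATalpha yeast showing the peptide. Pairs that bind mate more often; barcode pairs of the diploids are counted by sequencing. The ratio of observed to expected reads was calibrated, replicate by replicate, on BCL2-family standards whose Kd was known from biolayer interferometry. Mating was done six times.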

Each scFv is VH, a (GGGGS)3 linker, VL, as in the parent Ab-14, and differs from it in the CDRs of the heavy chain only.
VH: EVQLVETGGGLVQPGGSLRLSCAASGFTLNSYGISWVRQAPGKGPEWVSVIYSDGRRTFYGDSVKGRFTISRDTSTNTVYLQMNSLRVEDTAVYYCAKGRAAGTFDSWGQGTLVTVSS
VL: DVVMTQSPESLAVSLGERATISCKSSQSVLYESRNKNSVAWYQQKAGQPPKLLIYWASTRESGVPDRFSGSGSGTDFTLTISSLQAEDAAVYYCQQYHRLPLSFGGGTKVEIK

Each variant's VH is given in full. Affinities are written as log10 Kd with Kd in nM; a lower number is a better binder. "ND" means that the variant was in the library but no mating with the target was seen in that replicate; the authors take this as a sign of poor binding, and no number exists. The authors' rule: three or more of the six replicates give a measured affinity, fewer mean a poor binder. Of ten entries with the parent sequence, four were seen in most replicates (averages 0.34 to 2.37), three in one and three in none, so single entries are noisy. Nonspecific signal, from three strains lacking the peptide, appeared in 1% of pairings of all heavy chain designs, centred on 2.08 (5% of these signals below 0.84); values are not corrected for it. The control count says in how many pairings with the empty strains this scFv gave a signal. Values of this round are not directly comparable with the first-round values of the same sequences.

Variant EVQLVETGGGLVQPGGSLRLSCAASGFCLNEYGISWVRQAPGKGPEWVSVIYSDGRRTFYGDSVKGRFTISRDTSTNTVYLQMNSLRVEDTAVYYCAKGRTAGTFDSWGQGTLVTVSS gave ND, 1.05, ND, ND, 1.90, 1.40 (controls 0 of 18).
Variant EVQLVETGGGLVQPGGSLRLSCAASGFSLNSYGISWVRQAPGKGPEWVSVIYSDGRRTFYSDSVKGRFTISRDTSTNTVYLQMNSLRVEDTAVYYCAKGRTAGTFDTWGQGTLVTVSS gave -0.10, 0.18, 0.47, -0.02, 0.00, -0.12 (controls 0 of 18).
Variant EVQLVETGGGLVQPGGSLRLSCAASGFSLNSYGISWVRQAPGKGPEWVSVIYSDGKRTFYGDSVKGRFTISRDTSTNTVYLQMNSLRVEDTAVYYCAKGEAAGTFDSWGQGTLVTVSS gave 0.44, 0.51, 0.41, 0.11, 0.44, 0.21 (controls 0 of 18).
Variant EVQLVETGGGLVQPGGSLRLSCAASGFSLNWYGISWVRQAPGKGPEWVSVIYSDGRRTFYIDSVKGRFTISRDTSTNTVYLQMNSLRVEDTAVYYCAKGQAAGTFDSWGQGTLVTVSS gave ND, ND, ND, ND, ND, ND (controls 0 of 18).
Variant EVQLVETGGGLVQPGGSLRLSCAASGFSLNSYGISWVRQAPGKGPEWVSVIYSDGRRTFYGDQVKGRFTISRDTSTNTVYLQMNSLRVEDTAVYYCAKGEAAGTFDSWGQGTLVTVSS gave 1.05, 1.05, 1.15, 0.53, 1.01, 0.37 (controls 0 of 18).
Variant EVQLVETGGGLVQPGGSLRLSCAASGFSLNSYGISWVRQAPGKGPEWVSVIYSDGRRTFYGDSVKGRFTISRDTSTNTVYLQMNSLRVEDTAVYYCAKGRTAGTFDCWGQGTLVTVSS gave ND, ND, ND, ND, ND, ND (controls 0 of 18).
Variant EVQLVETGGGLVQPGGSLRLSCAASGFGLNEYGISWVRQAPGKGPEWVSVIYSDGRRTFYGDSVKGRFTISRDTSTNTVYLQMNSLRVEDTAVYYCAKGRMAGTFDSWGQGTLVTVSS gave 1.09, 1.25, 0.11, 0.75, 1.22, 1.09 (controls 0 of 18).
Variant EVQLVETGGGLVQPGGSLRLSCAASGFSLNNYGISWVRQAPGKGPEWVSVIYSDGRRTFYGDSVKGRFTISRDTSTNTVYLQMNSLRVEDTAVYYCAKGKTAGTFDSWGQGTLVTVSS gave 0.39, 0.40, -0.09, 0.41, 0.10, 0.33 (controls 0 of 18).
Variant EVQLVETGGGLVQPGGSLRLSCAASGFTLNSYGISWVRQAPGKGPEWVSVIYSDGVRTFYGDSVKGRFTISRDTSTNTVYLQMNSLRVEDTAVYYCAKGRTAGTFDSWGQGTLVTVSS gave 1.37, 1.43, 1.03, 0.79, 1.19, 0.92 (controls 1 of 18).
Variant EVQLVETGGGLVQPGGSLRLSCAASGFTLNSYGISWVRQAPGKGPEWVSVIYSDGRRTFYGDSVKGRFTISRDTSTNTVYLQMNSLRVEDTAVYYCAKGEVAGTFDSWGQGTLVTVSS gave 0.27, 0.73, 0.20, -0.16, 1.69, 0.87 (controls 0 of 18).
Variant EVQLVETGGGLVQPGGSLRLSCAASGFTLNEYGISWVRQAPGKGPEWVSVIYSDGRRTFYGNSVKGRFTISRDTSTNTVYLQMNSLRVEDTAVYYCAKGRTAGTFDSWGQGTLVTVSS gave 0.65, 0.44, 0.62, 0.53, 2.00, 0.99 (controls 1 of 18).
Variant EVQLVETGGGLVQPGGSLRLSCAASGFSLNEYGISWVRQAPGKGPEWVSVIYSDGQRTFYGDSVKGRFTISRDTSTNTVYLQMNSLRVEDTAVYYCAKGRAAGTFDSWGQGTLVTVSS gave ND, ND, ND, ND, ND, ND (controls 0 of 18).
Variant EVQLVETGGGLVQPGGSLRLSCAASGFELNSYGISWVRQAPGKGPEWVSVIYSDGRRTFYGDSVKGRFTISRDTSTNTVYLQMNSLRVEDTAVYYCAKGQAAGTFDSWGQGTLVTVSS gave 0.80, 0.74, 0.41, 0.43, 0.19, 1.00 (controls 0 of 18).
Variant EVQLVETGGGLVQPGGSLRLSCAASGFTLESYGISWVRQAPGKGPEWVSVIYSDGRRTFYADSVKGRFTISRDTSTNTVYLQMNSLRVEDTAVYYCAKGAAAGTFDSWGQGTLVTVSS gave 0.66, 0.91, -0.30, 0.21, -0.04, -0.30 (controls 0 of 18).
Variant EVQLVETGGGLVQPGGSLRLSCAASGFSLNEYGISWVRQAPGKGPEWVSVIYSDGRRTFYGDSVKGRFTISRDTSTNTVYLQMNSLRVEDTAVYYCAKGQAAGTFDKWGQGTLVTVSS gave 0.00, -0.18, -0.20, -0.29, -0.24, 0.00 (controls 1 of 18).
Variant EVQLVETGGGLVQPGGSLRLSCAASGFNLNSYGISWVRQAPGKGPEWVSVIYSDGRRTFYGDQVKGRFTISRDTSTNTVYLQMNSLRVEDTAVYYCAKGRTAGTFDSWGQGTLVTVSS gave ND, ND, ND, ND, ND, ND (controls 0 of 18).
Variant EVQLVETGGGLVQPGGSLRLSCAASGFSLNEYGISWVRQAPGKGPEWVSVIYSDGRRTFYIDSVKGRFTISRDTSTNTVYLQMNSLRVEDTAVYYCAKGRAAGTFDSWGQGTLVTVSS gave -0.05, 0.34, -0.30, -0.88, -0.30, 0.43 (controls 0 of 18).
Variant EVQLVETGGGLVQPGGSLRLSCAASGFNLNSYGISWVRQAPGKGPEWVSVIYSDGRRTFYGDSVKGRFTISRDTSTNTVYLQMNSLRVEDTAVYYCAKGQAAGTFDLWGQGTLVTVSS gave ND, ND, ND, ND, ND, ND (controls 1 of 18).
Variant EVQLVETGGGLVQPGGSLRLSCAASGFSLNNYGISWVRQAPGKGPEWVSVIYSDGRRTFYGDWVKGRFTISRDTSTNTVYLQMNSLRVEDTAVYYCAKGRTAGTFDSWGQGTLVTVSS gave ND, ND, ND, ND, ND, ND (controls 0 of 18).
Variant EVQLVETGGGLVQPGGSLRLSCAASGFTLNSYGISWVRQAPGKGPEWVSVIYADGRRTFYGDSVKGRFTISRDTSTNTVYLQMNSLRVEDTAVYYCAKGRLAGTFDSWGQGTLVTVSS gave 1.86, 1.40, 0.29, 1.02, 0.85, 3.56 (controls 0 of 18).
Variant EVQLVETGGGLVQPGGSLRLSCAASGFTLNEYGISWVRQAPGKGPEWVSVIYSDGRRTFYGDSVKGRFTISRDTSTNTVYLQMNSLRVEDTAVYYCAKGREAGTFDTWGQGTLVTVSS gave -0.37, -0.42, -0.37, -0.48, -0.41, -0.44 (controls 0 of 18).
Variant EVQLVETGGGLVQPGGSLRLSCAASGFTLNEYGISWVRQAPGKGPEWVSVIYSDGRRTFYADSVKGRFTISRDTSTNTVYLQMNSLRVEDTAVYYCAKGRMAGTFDSWGQGTLVTVSS gave -0.29, 0.56, -0.10, -0.14, 0.13, 0.20 (controls 0 of 18).

For reference, 3 entries of the list once more:

{"VH": "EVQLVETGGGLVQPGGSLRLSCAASGFSLNSYGISWVRQAPGKGPEWVSVIYSDGRRTFYSDSVKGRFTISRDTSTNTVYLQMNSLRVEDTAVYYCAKGRTAGTFDTWGQGTLVTVSS", "replicates, log10 nM": "-0.10, 0.18, 0.47, -0.02, 0.00, -0.12", "empty controls": "0/18"}
{"VH": "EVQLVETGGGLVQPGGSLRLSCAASGFGLNEYGISWVRQAPGKGPEWVSVIYSDGRRTFYGDSVKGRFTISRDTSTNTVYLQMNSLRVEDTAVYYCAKGRMAGTFDSWGQGTLVTVSS", "replicates, log10 nM": "1.09, 1.25, 0.11, 0.75, 1.22, 1.09", "empty controls": "0/18"}
{"VH": "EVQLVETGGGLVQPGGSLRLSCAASGFSLNEYGISWVRQAPGKGPEWVSVIYSDGRRTFYIDSVKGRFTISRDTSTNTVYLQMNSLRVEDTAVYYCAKGRAAGTFDSWGQGTLVTVSS", "replicates, log10 nM": "-0.05, 0.34, -0.30, -0.88, -0.30, 0.43", "empty controls": "0/18"}